Source: patent publication US20260384399A1, “INDAZOLE DERIVATIVES AS SEROTONERGIC AGENTS USEFUL FOR THE TREATMENT OF DISORDERS RELATED THERETO” (published 2026)

Amino acid sequences for entries named in this document (tags omitted).
UniProt P08908, whole entry: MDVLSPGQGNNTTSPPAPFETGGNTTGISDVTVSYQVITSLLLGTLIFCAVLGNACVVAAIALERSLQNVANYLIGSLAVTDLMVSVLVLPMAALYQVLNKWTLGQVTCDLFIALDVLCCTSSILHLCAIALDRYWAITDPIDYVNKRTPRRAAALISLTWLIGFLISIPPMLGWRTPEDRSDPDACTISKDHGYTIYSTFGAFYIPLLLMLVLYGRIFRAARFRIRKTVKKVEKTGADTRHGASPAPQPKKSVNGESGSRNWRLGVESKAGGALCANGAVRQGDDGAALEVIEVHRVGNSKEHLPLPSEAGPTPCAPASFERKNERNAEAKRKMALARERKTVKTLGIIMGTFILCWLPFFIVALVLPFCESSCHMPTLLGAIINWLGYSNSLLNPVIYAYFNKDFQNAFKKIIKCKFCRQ
UniProt P28223, whole entry: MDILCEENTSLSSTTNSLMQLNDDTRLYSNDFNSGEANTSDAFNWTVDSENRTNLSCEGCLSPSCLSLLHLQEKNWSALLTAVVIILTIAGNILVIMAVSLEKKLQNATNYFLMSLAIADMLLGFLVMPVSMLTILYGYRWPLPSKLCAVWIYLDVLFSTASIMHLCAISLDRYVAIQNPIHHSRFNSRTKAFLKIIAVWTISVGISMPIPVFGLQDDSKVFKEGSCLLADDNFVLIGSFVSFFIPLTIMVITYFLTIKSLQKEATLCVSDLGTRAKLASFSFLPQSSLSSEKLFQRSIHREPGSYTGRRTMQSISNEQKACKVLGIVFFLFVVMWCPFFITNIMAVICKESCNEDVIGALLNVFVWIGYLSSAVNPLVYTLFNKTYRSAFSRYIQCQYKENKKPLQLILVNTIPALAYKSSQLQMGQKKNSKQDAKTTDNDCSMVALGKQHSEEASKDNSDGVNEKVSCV

What was measured:
heroin addiction = conditions: compared to controls at long-term follow-ups; cited from earlier work
[1] = target: T1, human 5-hydroxytryptamine receptor 1A (5-HT1A) (Homo sapiens, UniProt P08908); assay: Human 5-HT1A: Functional FLIPR Assay (agonist mode, calcium); conditions: for RFU@10 μM: human 5-HT1A FLIPR, RFU=Fmax−Fmin
[2] = target: T1, human 5-hydroxytryptamine receptor 1A (5-HT1A); assay: Human 5-HT1A: Radioligand Binding Assay ([3H]-8-Hydroxy-DPAT); conditions: read-out: h5-HT1A, IC50
[3] = target: T2, human 5-hydroxytryptamine receptor 2A (5-HT2A) (Homo sapiens, UniProt P28223); assay: Human 5-HT2A: Radioligand Binding Assay ([3H]-ketanserin); conditions: read-out: h5-HT2A, IC50
[4] = target: T2, human 5-hydroxytryptamine receptor 2A (5-HT2A); assay: Human 5-HT2A: Functional FLIPR Assay (agonist mode, calcium); conditions: human 5-HT2A FLIPR, RFU=Fmax−Fmin
[5] = Liver Microsomes Stability, rat; conditions: for Predicted hepatic CL / Scaled-up CLint / CLint / T1/2: rat liver microsomes, with NADPH; for CLint / T1/2: 2 μM; for Remaining Percentage (%): rat
[6] = Liver Microsomes Stability, human; conditions: for Predicted hepatic CL / Scaled-up CLint / CLint / T1/2: human liver microsomes, with NADPH; for CLint / T1/2: 2 μM; for Remaining Percentage (%): human
human 5-HT2A receptor = conditions: compared with the rat receptor; cited from earlier work
frontal cortical regions = conditions: 15 or 20 mg orally, healthy participants; cited from earlier work
[7] = system: low attentive and low motivated rats; conditions: doses below the threshold for wet dog shake response; cited from earlier work
[8] = system: depression and anxiety associated with life-threatening disease; conditions: supportive setting; cited from earlier work
default mode network = conditions: intravenous, humans; cited from earlier work
5-HT1A receptors = conditions: in words; cited from earlier work
[9] = controlled setting; dose-related; cited from earlier work
tobacco use disorder = conditions: six months follow-up; cited from earlier work
[10] = system: treatment resistant, major depressive disorder and cancer-related psychosocial distress; conditions: double-blind placebo-controlled phase 2 studies; cited from earlier work
5-HT2 receptor = conditions: daily administration; cited from earlier work

## CNC1(c2ccccc2Cl)CCCCC1=O (stereo not drawn)
Heroin addiction
  rates of abstinence: higher rates of abstinence

## CN(C)CCn1ncc2ccc(F)cc21
[1]
  RFU@10 μM: 268 RFU
[2]
  IC50: 616 nM
[3]
  IC50: 3400 nM
[4]
  RFU@10 μM: 491 RFU

## COc1ccc2cnn(CCN(C)C)c2c1
[1]
  RFU@10 μM: 1164 RFU
[2]
  IC50: 46.8 nM
[3]
  IC50: 5210 nM
[4]
  RFU@10 μM: 463 RFU

## CN1CCC[C@@H]1Cn1ncc2ccc(F)cc21
[1]
  RFU@10 μM: 87 RFU
[2]
  IC50: 924 nM
[3]
  IC50: 19400 nM
[4]
  RFU@10 μM: 534 RFU

## O=C(O)Cc1ccccc1Nc1c(Cl)cccc1Cl
[5]
  Predicted hepatic CL: 40.90 mL/min/kg
[6]
  Predicted hepatic CL: 18.43 mL/min/kg

## COc1ccc2cnn(C[C@@H]3CCCN3C)c2c1
[3]
  IC50: > 30000 nM
[4]
  RFU@10 μM: 367 RFU

## [2H]C([2H])([2H])N(CCn1ncc2ccc(F)cc21)C([2H])([2H])[2H]
[1]
  RFU@10 μM: 162 RFU
[2]
  IC50: 486 nM
[3]
  IC50: 3580 nM
[4]
  RFU@10 μM: 599 RFU

## COc1ccc2cnn(C[C@H]3CCCN3C)c2c1
[1]
  RFU@10 μM: 76 RFU
[2]
  IC50: 420 nM
[3]
  IC50: > 30000 nM
[4]
  RFU@10 μM: 251 RFU

## CN(C)CCc1c[nH]c2cccc(OP(=O)(O)O)c12
Human 5-HT2A receptor
  affinity for the human 5-HT2A receptor: stronger affinity for the human 5-HT2A receptor than for the rat receptor
Frontal cortical regions
  absolute metabolic rate of glucose in frontal cortical regions: increased absolute metabolic rate of glucose in frontal
[7]
  performance on 5 choice serial reaction time and progressive ratio tasks: improved performance
[1]
  RFU@10 μM: 143 RFU
[8]
  anti-depressant and anxiolytic effects: significant and sustained anti-depressant and anxiolytic effects
Default mode network
  oscillatory power in areas of the brain's default mode network: decreases in oscillatory power
5-HT1A receptors
  activation of 5-HT1A receptors: activates 5-HT1A receptors
[9]
  adverse effects: transient, delayed headache
Tobacco use disorder
  abstinence rate: 80%
[10]
  relief of anxiety and depression: unprecedented positive relief of anxiety and depression
[4]
  RFU@10 μM: 257 RFU
5-HT2 receptor
  5-HT2 receptor density in rat brain: reduce 5-HT2 receptor density in rat brain

## Fc1ccc2cnn(C[C@H]3CCCN3)c2c1
[1]
  RFU@10 μM: 170 RFU
[2]
  IC50: 668 nM
[4]
  RFU@10 μM: 280 RFU

## CN(C)CCc1c[nH]c2cccc(O)c12
[1]
  RFU@10 μM: 140 RFU

## COc1ccc2cnn(C[C@H]3CCCN3)c2c1.Cl
[1]
  RFU@10 μM: 1165 RFU
[5]
  Predicted hepatic CL: 28.35 mL/min/kg
  Scaled-up CLint: 58.27 mL/min/kg
  CLint: 32.52 μL/min/mg protein
  T1/2: 0.7103 h
[5]; With Cofactors, 0 min
  Remaining Percentage (%): 100.00%
[5]; With Cofactors, 30 min
  Remaining Percentage (%): 52.52%
[5]; With Cofactors, 60 min
  Remaining Percentage (%): 37.70%
[5]; Without Cofactors, 0 min
  Remaining Percentage (%): 100.00%
[5]; Without Cofactors, 30 min
  Remaining Percentage (%): 97.92%
[5]; Without Cofactors, 60 min
  Remaining Percentage (%): 102.34%
[6]
  Predicted hepatic CL: 3.27 mL/min/kg
  Scaled-up CLint: 3.89 mL/min/kg
  CLint: 3.10 μL/min/mg protein
  T1/2: 7.4475 h
[6]; With Cofactors, 0 min
  Remaining Percentage (%): 100.00%
[6]; With Cofactors, 30 min
  Remaining Percentage (%): 92.80%
[6]; With Cofactors, 60 min
  Remaining Percentage (%): 91.11%
[6]; Without Cofactors, 0 min
  Remaining Percentage (%): 100.00%
[6]; Without Cofactors, 30 min
  Remaining Percentage (%): 98.12%
[6]; Without Cofactors, 60 min
  Remaining Percentage (%): 96.49%
[4]
  RFU@10 μM: 306 RFU

## CCN(CC)C(=O)[C@@H]1C=C2c3cccc4[nH]cc(c34)C[C@H]2N(C)C1
[8]
  anti-depressant and anxiolytic effects: significant and sustained anti-depressant and anxiolytic effects
Default mode network
  oscillatory power in areas of the brain's default mode network: decreases in oscillatory power
Heroin addiction
  rates of abstinence: higher rates of abstinence

## [2H]C([2H])([2H])N(CCn1ncc2ccc(OC)cc21)C([2H])([2H])[2H]
[1]
  RFU@10 μM: 2486 RFU
[1]; read-out: h5-HT1A, EC50, FLIPR functional assay, agonist mode, ND: not detected
  EC50: 3290 nM
[5]
  Predicted hepatic CL: 47.68 mL/min/kg
  Scaled-up CLint: 349.75 mL/min/kg
  CLint: 195.17 μL/min/mg protein
  T1/2: 0.118 h
[5]; With Cofactors, 0 min
  Remaining Percentage (%): 100.00%
[5]; With Cofactors, 30 min
  Remaining Percentage (%): 5.35%
[5]; With Cofactors, 60 min
  Remaining Percentage (%): 0.51%
[5]; Without Cofactors, 0 min
  Remaining Percentage (%): 100.00%
[5]; Without Cofactors, 30 min
  Remaining Percentage (%): 96.12%
[5]; Without Cofactors, 60 min
  Remaining Percentage (%): 94.40%
[2]
  IC50: 23.8 nM
[3]
  IC50: 5170 nM
[6]
  Predicted hepatic CL: 8.94 mL/min/kg
  Scaled-up CLint: 15.72 mL/min/kg
  CLint: 12.54 μL/min/mg protein
  T1/2: 1.8425 h
[6]; With Cofactors, 0 min
  Remaining Percentage (%): 100.00%
[6]; With Cofactors, 30 min
  Remaining Percentage (%): 82.16%
[6]; With Cofactors, 60 min
  Remaining Percentage (%): 68.65%
[6]; Without Cofactors, 0 min
  Remaining Percentage (%): 100.00%
[6]; Without Cofactors, 30 min
  Remaining Percentage (%): 96.80%
[6]; Without Cofactors, 60 min
  Remaining Percentage (%): 89.50%
[4]
  RFU@10 μM: 523 RFU

## COc1ccc2cnn(C[C@H]3CCCN3)c2c1
[2]
  IC50: 33.6 nM
[3]
  IC50: 2190 nM
